This is an account of results in US20060051395A1 (AFFINERGY, published 2006).

T1: Bone Morphogenic Protein 2 (BMP-2) (UniProt P12643 283-396)
T1 construct: Bought from Medtronic; In the phage ELISAs it was biotinylated with NHS-biotin (about one biotin per molecule) and held on streptavidin plates; In the peptide assays it was unlabelled
T1 sequence (looked up): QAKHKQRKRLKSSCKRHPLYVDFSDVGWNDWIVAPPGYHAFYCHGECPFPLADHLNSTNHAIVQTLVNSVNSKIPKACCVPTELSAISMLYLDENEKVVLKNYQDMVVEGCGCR

B1: AFF-2007 (peptide)
peptide: SRGGEAAAGAWVSFSALESSR
modifications: biotin on the epsilon amino group of a lysine residue at the C-terminus
notes: Synthetic form of the peptide of clone AP02-50; not shown: C-terminal biotinylated lysine; any linker before it is not spelled out for this peptide
B2: AFF-2006 (peptide)
peptide: SRSSDSAFSSFSALEGSVVSR
modifications: biotin on the epsilon amino group of a lysine residue at the C-terminus
notes: Synthetic form of the peptide of clone AP02-48; not shown: C-terminal biotinylated lysine; any linker before it is not spelled out for this peptide
B3: AFF-2011 (peptide)
peptide: SSDWGVVASAWDAFEALDASR
modifications: biotin on the epsilon amino group of a lysine residue at the C-terminus
notes: Synthetic form of the peptide of clone AP02-45; not shown: C-terminal biotinylated lysine; any linker before it is not spelled out for this peptide

For the assay, the target named is T1, Bone Morphogenic Protein 2 (BMP-2). As to the kind of experiment: estimated affinity from solution-phase binding of biotinylated peptide and BMP-2, capture on streptavidin plate, anti-BMP antibody detection. Here is the method: To confirm these BMP binding results, the peptides were also tested in an alternate assay format in which the peptide and BMP2 were allowed to bind in solution and then assayed. Briefly, the peptides were synthesized with a biotin group attached to the E amino group of a lysine residue at the C-terminus of the peptide. The biotinylated peptides (0-12 pmoles) were mixed with BMP-2 (0-25 pmoles) in solution and allowed to incubate at 37° C. for 30 minutes in a polypropylene plate. The solutions were transferred to a streptavidin-coated plate and incubated for 1 hour at 37° C. to capture the biotinylated peptides. Plates were washed in TBS-Tween™ 20 and then incubated with an anti-BMP antibody (1:1000 dilution; R&D systems) for 1 hour at RT. After washing, an alkaline phosphatase-labeled secondary antibody was then added to the plate and incubated at RT for 30 minutes. The plates were washed with TBS-Tween™ 20 and the antibody binding was detected using the chromogenic AP substrate pNPP.
For the molecule B1, the Kd – broadly, the equilibrium constant for the complex coming apart – was 79 nM.
For B2, the Kd was 21 nM.
The same measure for B3: 55 nM.
